IC50 data for one compound are collected here from ChEMBL document CHEMBL1764976, “Small molecule inhibitors of retinoic acid 4-hydroxylase (CYP26): synthesis and biological evaluation of imidazole methyl 3-(4-(aryl-2-ylamino)phenyl)propanoates” (J Med Chem, 2011).

In this test the target is T1, Cytochrome P450 26A1 (Homo sapiens, UniProt O43174).
T1 sequence (O43174 whole entry): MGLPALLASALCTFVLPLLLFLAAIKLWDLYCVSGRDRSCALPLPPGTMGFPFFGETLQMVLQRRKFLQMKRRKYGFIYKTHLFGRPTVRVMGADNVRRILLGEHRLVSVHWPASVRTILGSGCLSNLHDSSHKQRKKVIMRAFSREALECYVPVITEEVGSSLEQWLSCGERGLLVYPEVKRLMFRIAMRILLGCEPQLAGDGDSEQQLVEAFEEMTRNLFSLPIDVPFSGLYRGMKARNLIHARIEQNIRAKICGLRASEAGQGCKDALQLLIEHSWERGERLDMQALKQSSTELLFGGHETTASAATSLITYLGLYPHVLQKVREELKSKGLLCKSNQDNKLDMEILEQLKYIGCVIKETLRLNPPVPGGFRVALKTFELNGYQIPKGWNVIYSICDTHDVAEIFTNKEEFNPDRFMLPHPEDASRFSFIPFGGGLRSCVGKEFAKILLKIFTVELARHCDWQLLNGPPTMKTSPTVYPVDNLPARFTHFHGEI
Nature of the test: Inhibition of CYP26A1 in human MCF7 cell microsomes using [3H]ATRA after 1 hr by scintillation counting. Also noted: species or system Microsome. In outline: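 Cell-free assay on MCF7 CYP26A1 microsomes with [11,12-3H]all-trans-retinoic acid as substrate. IC50 taken from the best fit of a four-point dose-response curve. Coefficient of variation across 8 repeat experiments for one compound was 15.5%.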

Turning to `Clc1cccc(C(c2ccc3[nH]cnc3c2)n2ccnc2)c1` (stereo unspecified) [LIAROZOLE], half-maximal inhibition (IC50) was put at 540 nM.
